Results on four molecules are retold here after US20210261622A1 (Janssen / Centocor, published 2021).

This assay deals with T1, interleukin-23 receptor (IL-23R) (human, UniProt Q5VWK5 24-629).
T1 sequence (looked up): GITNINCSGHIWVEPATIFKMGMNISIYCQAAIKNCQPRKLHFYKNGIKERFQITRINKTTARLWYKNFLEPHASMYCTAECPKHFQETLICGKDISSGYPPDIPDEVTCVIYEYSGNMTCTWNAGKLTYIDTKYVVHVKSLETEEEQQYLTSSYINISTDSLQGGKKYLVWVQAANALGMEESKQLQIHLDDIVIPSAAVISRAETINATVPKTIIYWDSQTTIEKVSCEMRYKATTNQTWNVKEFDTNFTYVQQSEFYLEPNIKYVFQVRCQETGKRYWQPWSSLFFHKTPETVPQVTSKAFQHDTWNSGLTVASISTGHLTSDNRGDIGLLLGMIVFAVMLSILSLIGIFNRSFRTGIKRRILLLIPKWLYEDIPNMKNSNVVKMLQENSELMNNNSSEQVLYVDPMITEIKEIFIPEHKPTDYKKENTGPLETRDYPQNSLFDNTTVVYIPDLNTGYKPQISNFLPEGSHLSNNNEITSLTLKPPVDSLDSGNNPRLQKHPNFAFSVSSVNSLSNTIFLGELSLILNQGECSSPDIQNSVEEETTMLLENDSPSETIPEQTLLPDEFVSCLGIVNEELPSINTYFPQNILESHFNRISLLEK
Briefly: cell-based or functional assay.

B1: Peptide No. 47 (SEQ ID NO: 47) (peptide)
peptide: XNTXKXFXKKNLY
modifications: Ac-[Pen]-N-T-[W(7-Me)]-[Lys(Ac)]-[Pen]-Phe[4-(2-aminoethoxy)]-[2-Nal]-[a-MeLys]-[Lys(Ac)]-N-[(D)Leu]-[(D)NMeTyr]-NH2; cyclized via Pen-Pen disulfide bond
With B1, the “IC50, NK Cell Assay (IFNγ in supernatant of human NK cells stimulated with IL-23 and IL-18)” value (“IC50, NK Cell Assay” below) turned out to be 1700 pM.

B2: Peptide No. 48 (SEQ ID NO: 48) (peptide)
peptide: XNTXKXFXKKNKY
modifications: Ac-[Pen]-N-T-[W(7-Me)]-[Lys(Ac)]-[Pen]-Phe[4-(2-aminoethoxy)]-[2-Nal]-[a-MeLys]-[Lys(Ac)]-N-[(D)Lys]-[(D)NMeTyr]-NH2; cyclized via Pen-Pen disulfide bond
B2: the “IC50, NK Cell Assay” value amounted to 1010 pM.

B3: Peptide No. 104 (SEQ ID NO: 104) (peptide)
peptide: XNTXKXFXXENXX
modifications: Ac-[Pen]-N-T-[W(7-Me)]-[Lys(Ac)]-[Pen]-Phe[4-(2-aminoethoxy)]-[2-Nal]-[THP]-E-N-[3Pal]-[Sarc]-NH2; cyclized via Pen-Pen disulfide bond
Regarding B3, the “IC50, NK Cell Assay” value worked out at 19.2 pM.

B4: Peptide No. 120 (SEQ ID NO: 120) (peptide)
peptide: XNTXKXFXKKNXY
modifications: Ac-[Pen]-N-T-[W(7-Me)]-[Lys(Ac)]-[Pen]-Phe[4-(2-aminoethoxy)]-[2-Nal]-[a-MeLys]-[Lys(Ac)]-N-[3Pal]-[(D)NMeTyr]-NH2; cyclized via Pen-Pen disulfide bond
B4: the “IC50, NK Cell Assay” value was determined as 51.2 pM.
